Biological target: P450 BM-3 monooxygenase mutant Phe87Val Leu188Gln Ala74Gly (Priestia megaterium, UniProt P14779, A75G/F88V/L189Q)
Assay: Hydroxylation of substrates using modified cytochrome P450 monooxygenase (GC/MS, NMR analysis)
Conditions: for starting material converted: Example 6 repeated with another substrate; for Conversion: product found by GC/MS of the reaction mixture, 25° C., pH 7.5

Chains of the proteins cited; added tags and fusions are not shown. Residues count along the entry.
UniProt P14779, 2-1049 A75G/F88V/L189Q limits assumed: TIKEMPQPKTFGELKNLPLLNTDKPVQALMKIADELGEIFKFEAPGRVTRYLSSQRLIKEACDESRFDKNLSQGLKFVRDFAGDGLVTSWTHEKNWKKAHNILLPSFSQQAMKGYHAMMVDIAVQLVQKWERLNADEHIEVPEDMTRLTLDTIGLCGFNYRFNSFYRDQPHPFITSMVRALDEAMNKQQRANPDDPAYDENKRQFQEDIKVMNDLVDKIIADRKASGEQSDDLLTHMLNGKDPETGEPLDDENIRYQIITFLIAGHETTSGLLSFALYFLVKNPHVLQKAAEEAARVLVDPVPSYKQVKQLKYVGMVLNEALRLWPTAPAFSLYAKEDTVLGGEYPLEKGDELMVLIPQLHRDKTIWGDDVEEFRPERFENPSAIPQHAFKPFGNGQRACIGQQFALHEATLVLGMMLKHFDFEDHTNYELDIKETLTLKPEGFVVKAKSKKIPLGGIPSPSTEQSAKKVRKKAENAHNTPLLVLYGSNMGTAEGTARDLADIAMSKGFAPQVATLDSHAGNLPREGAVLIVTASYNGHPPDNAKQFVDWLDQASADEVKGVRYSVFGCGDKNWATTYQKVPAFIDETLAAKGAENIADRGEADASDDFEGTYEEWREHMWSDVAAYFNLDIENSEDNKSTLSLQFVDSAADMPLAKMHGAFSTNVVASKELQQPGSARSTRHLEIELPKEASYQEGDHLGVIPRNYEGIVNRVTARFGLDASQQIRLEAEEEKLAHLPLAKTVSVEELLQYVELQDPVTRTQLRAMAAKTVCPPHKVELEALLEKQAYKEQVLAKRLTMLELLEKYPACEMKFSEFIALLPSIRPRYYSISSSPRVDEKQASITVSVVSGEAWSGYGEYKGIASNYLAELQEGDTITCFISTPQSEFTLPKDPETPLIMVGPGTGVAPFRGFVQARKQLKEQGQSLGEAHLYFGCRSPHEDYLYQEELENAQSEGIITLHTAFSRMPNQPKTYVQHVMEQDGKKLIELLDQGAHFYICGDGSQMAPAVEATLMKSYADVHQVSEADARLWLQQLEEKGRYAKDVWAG

## Cc1cccc2cccnc12 [8-methylquinoline]
  starting material converted: 35%

## CCCCCCC(C)O (stereo not shown) [Mutant 2-octanol, 2-octanol]
Substrate n-octane
  Conversion: 16%

## CCCCCC(O)CC (stereo not shown) [Mutant 3-octanol, 3-octanol]
Substrate n-octane
  Conversion: 47%

## CCCCC(O)CCC (stereo not shown) [Mutant 4-octanol, 4-octanol]
Substrate n-octane
  Conversion: 37%

## CC(C)c1ccccc1 [cumene]
  starting material converted: 70%

## CCCCCCCC [n-octane]
Substrate n-octane, GC/MS
  starting material remaining: No starting material was found

## CC(=O)/C=C/C1C(C)=CCCC1(C)C (stereo not drawn) [α-ionone]
  starting material converted: 60%

— patent publication US7960155B1, “Cytochrome p450 monooxygenases and their use for oxidizing organic compounds” (BASF Aktiengesellschaft, priority 1999, dated 2011)
